How the values were obtained:
[1] = biological target: T1, isolated HNE (human neutrophil elastase) (Homo sapiens, UniProt P08246); assay: Inhibition of isolated HNE, steady-state kinetics (MeOSuc-AAPV-AMC); type: biochemical; settings: HNE 0.5 nM, incubated 1 h 37 °C, Morrison fit, mean ± SD; compound 5b in phosphate buffer pH 7.4
T1 construct: immediately processed to its active form in the trans-Golgi before being targeted to azurophil granules; purchased Merck (Darmstadt, Germany) 324681
T1 sequence (P08246 30-267): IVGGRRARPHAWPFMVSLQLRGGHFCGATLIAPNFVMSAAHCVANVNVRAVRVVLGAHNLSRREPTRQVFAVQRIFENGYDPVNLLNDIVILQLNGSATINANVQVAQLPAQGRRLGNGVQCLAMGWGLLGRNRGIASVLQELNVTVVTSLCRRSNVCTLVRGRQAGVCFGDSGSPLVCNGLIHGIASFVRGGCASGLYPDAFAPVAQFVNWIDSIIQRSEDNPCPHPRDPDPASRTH
Procedure: (§1) To determine the inhibition constants of reversible inhibitors with isolated HNE and HNE in cell lysates, HNE (0.5 nM) and U937 lysates (1000 cells/µL) were incubated with serial dilutions of the compounds in assay buffer at 37 °C for ≥ 1 h. Subsequently, residual HNE activity was measured as described above and compared to the activity of uninhibited HNE. […] The inhibition curves generated were fitted to Morrisons’s equation to obtain the dissociation equilibrium constant Ki with pro-Fit (Quantum Soft, Uetikon am See, Switzerland) using a Levenberg–Marquardt algorithm.

HNE in U937 lysates = biological target: T2, HNE in U937 lysates (Homo sapiens, UniProt P08246); assay: Inhibition of HNE activity in U937 lysates; type: biochemical; settings: U937 lysate 1000 cells/µL, incubated 1 h 37 °C, Morrison fit, mean ± SD
T2 construct: the myeloid cell line U937, which can differentiate into neutrophils [25] and expresses HNE; host or cells: U937 (histiocytic lymphoma), undifferentiated
T2 sequence (P08246 30-247 limits assumed): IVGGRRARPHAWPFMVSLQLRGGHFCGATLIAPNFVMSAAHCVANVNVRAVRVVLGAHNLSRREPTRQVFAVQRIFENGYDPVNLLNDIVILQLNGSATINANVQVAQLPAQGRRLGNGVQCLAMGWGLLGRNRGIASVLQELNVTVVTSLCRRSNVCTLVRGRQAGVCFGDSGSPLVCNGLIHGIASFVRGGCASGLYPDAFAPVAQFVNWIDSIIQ
Procedure: For the quantification and characterization of HNE-like activity in cell lysates, the density of the sample cell suspension was first quantified using a CASY-1 cell counter.
as §1

SMILES: CC(C)(C)C(=O)Oc1ccc(S(=O)(=O)Nc2ccccc2C(=O)NCC(=O)O)cc1 [Sivelestat, sivelestat]
- Ki [1]: 17 nM
- Ki (HNE in U937 lysates): 19 nM

Reference: PMC11276905 (International Journal of Molecular Sciences, 2024)
